This is an account of results in patent US5968817A, “DNA encoding serotonin receptors” (priority 1993, dated 1999).

Chains of the proteins cited; added tags and fusions are not shown. Residues count along the entry.
UniProt P35365, whole entry S4C/P322A: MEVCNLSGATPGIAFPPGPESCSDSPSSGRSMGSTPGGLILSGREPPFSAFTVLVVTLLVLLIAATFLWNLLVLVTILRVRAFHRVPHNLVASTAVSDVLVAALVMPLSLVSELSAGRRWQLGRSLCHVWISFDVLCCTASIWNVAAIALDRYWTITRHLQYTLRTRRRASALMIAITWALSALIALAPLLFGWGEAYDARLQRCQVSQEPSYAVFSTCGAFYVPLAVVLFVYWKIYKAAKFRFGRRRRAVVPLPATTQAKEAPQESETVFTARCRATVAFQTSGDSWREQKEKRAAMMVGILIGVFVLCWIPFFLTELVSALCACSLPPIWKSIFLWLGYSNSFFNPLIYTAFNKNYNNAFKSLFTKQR
UniProt P32305, 1-435: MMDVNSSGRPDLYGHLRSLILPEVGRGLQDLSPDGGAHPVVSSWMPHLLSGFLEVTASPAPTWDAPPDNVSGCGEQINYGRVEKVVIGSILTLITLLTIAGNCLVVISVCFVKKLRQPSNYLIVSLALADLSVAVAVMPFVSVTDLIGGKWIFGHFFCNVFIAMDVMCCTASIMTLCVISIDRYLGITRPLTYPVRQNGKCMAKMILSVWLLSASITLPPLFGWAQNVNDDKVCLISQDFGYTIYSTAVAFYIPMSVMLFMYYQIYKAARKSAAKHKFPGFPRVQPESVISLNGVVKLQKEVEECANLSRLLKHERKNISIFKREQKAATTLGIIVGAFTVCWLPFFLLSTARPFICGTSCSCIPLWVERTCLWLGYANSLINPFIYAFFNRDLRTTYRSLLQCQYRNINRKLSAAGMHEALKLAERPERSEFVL
UniProt P35364, whole entry: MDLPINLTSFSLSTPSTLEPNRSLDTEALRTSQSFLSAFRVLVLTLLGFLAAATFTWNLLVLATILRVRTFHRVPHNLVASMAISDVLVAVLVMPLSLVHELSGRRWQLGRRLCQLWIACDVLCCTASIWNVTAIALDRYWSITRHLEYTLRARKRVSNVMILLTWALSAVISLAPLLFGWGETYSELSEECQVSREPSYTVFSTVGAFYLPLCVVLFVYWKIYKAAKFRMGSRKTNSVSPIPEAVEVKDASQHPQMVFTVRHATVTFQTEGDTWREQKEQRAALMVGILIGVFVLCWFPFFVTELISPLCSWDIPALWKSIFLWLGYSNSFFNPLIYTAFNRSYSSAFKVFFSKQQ

In general, IC50 refers to the concentration at which inhibition is half-maximal.

Where two headings read alike, the source gives them in different places.

For experiment [1], the target named is T1, MR22 serotonin receptor (5-HT5β) (Rattus norvegicus, UniProt P35365).
T1 construct: contains an open reading frame (ORF) encoding 370 amino acids; expressed in transfected cells; host or cells: CosM6 (subclone of COS-7), transient, vector pCMV4
Put plainly: [125I]-LSD competition binding to membranes of CosM6 cells expressing MR22.

Experiment [2] has as its target T2, MR77 serotonin receptor (5-HT1E-Like) (Rattus norvegicus, UniProt P30940).
T2 construct: expressed in transfected cells; host or cells: CosM6 (subclone of COS-7), transient, vector pCMV4
T2 sequence (P30940 1-366): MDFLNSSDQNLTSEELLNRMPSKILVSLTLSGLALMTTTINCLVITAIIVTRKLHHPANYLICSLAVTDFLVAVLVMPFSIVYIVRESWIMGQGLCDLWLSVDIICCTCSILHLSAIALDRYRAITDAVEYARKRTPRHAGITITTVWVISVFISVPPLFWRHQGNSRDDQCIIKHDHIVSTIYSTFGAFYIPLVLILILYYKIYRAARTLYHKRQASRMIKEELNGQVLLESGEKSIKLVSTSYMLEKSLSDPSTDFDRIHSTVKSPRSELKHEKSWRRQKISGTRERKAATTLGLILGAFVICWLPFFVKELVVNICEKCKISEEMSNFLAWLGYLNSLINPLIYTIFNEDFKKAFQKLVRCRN
Put plainly: [125I]-LSD competition binding to membranes of CosM6 cells expressing MR77. To be noted: 1 nM [125I]-LSD, 60 min 37° C.

Experiment [3] addresses T3, REC20 serotonin receptor (5-HT6) (Rattus norvegicus, UniProt P32305).
T3 construct: encodes a putative protein of 435 amino acids; expressed in transfected cells; host or cells: CosM6 (subclone of COS-7), transient, vector pCMV4
Put plainly: [125I]-LSD competition binding to membranes of CosM6 cells expressing REC20. The settings on record: 1 nM [125I]-LSD, 60 min 37° C.

In experiment [4] the target is T4, REC17 serotonin receptor (5-HT5α) (Rattus norvegicus, UniProt P35364).
T4 construct: contains an ORF encoding 357 amino acids; expressed in transfected cells; host or cells: CosM6 (subclone of COS-7), transient, vector pCMV4
Put plainly: [125I]-LSD competition binding to membranes of CosM6 cells expressing REC17.

For `COC(=O)[C@@H]1[C@H]2C[C@H]3c4[nH]c5ccccc5c4CCN3C[C@@H]2CC[C@@H]1O` [Yohimbine], in experiment [1], the IC50 is greater than 1000 nM.

`CCCN(CCC)C1CCc2cccc(O)c2C1` (centres unmarked) [Ligand 8-OH-DPAT]: the IC50 in experiment [2] was greater than 1000 nM.

With `CNS(=O)(=O)Cc1ccc2[nH]cc(CCN(C)C)c2c1` [Sumatriptan], the IC50 in experiment [2] amounted to 67 nM.

Take `CSc1ccc2c(c1)C(N1CCN(C)CC1)Cc1ccccc1S2` (centres unmarked) [Methiothepin]: the IC50 came out at 1.3 nM in experiment [3] and 176 nM in experiment [1] (CosM6 membranes, 1 nM [125I]-LSD, 60 min 37° C., read-out: IC50 for competition with 125I-LSD, MR22).

On to `CN1C[C@H](C(=O)N[C@]2(C)O[C@@]3(O)[C@@H]4CCCN4C(=O)[C@H](Cc4ccccc4)N3C2=O)C=C2c3cccc4[nH]cc(c34)C[C@H]21` [Ergotamine], for which, in experiment [4], the IC50 stood at 10 nM and the “sensitivity of REC17 to the ligand (in words)” value is “sensitive”.

In experiment [1], `NCCc1c[nH]c2ccc(O)cc12` [Ligand 5-HT, 5-hydroxytryptamine] had an IC50 of 1610 nM.
